Patent US20130005651A1, “DEATH ASSOCIATED PROTEIN 1 VARIANTS AND USE THEREOF FOR MODULATING AUTOPHAGY” (YEDA RESEARCH AND DEVELOPMENT CO. LTD., priority 2010, published 2013)

How the values were obtained:
mTOR [1] = biological target: T1, mTOR (Homo sapiens, UniProt P42345); assay: In vitro kinase assay for mTOR activity; type: biochemical; settings: mTOR immunoprecipitated from HEK293T cells, Torin1 50 nM, 20 min at 30° C.
T1 construct: endogenous in cells; host or cells: HeLa

mTOR [2] = biological target: T1, mTOR; type: cell-based

CCC(=O)N1CCN(c2ccc(-n3c(=O)ccc4cnc5ccc(-c6cnc7ccccc7c6)cc5c43)cc2C(F)(F)F)CC1 [Torin1]
phosphorylation of GST-4E-BP1 (Thr 37/46) by mTOR (mTOR [1]): attenuated | phosphorylation of His-DAP1 on Ser51 by mTOR (mTOR [1]; anti-phospho-Ser51 antibody): attenuated | phospho-Ser51 signal of DAP1 (mTOR [2]): decline | phosphorylation of p70S6K (Thr389), positive control (mTOR [2]): similarly affected | shift of DAP1 to the fast migrating form indicative of dephosphorylation of Ser3 (mTOR [2]): typical shift of DAP1 to the fast migrating form
